# EP0457318B1, “Alpha-Oxopyrrolo[2,3-b]indole acetic acids, esters, amides and related analogs, a process for their preparation and their use as medicaments” (HOECHST-ROUSSEL PHARMACEUTICALS INCORPORATED, priority 1990, dated 1991)
# Amino acid sequences for entries named in this document (tags omitted). A change or cut given only in a name is not applied to a line headed by its entry.
# UniProt P37136: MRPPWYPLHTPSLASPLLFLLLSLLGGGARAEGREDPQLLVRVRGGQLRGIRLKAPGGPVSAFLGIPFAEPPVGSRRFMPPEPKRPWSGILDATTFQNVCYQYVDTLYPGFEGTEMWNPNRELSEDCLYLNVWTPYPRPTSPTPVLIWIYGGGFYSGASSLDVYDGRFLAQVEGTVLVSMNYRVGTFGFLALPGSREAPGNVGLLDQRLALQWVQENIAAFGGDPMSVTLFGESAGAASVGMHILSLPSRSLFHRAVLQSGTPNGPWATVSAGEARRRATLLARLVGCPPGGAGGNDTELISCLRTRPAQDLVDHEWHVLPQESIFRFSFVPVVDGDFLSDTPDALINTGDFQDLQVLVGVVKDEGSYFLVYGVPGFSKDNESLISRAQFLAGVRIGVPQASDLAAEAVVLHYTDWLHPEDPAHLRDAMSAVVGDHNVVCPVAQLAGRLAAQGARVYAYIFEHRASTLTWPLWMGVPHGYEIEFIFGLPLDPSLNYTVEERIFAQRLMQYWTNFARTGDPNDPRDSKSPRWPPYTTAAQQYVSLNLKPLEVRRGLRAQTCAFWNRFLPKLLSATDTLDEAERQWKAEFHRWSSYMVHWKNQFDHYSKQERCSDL
# Molecular target: Brain AChE (Rattus norvegicus, UniProt P37136)
# Assay: In vitro inhibition of acetylcholinesterase activity in rat striatum (modified Ellman method)
# Type: biochemical
# Settings: read-out: Inhibitory Concentration (IC50) Brain AChE; rat striatum homogenate, preincubated 10 minutes at 37°C, 5 mM acetylthiocholine, pH 7.2
# Excerpt: Cholinesterases are found throughout the body, both in the brain and in serum. However, only brain acetylcholinesterase (AChE) distribution is correlated with central cholinergic innervation. […] We have determined in vitro inhibition of acetylcholinesterase activity in rat striatum according to the method described below.
# In Vitro Inhibition of Acetylcholinesterase Activity in Rat Striatum
# The method described below was used in this invention for assaying anticholinesterase activity. This is a modification of the method of Ellman et al., Biochem. Pharmacol. 7, 88 (1961).
# • 1. 0.05 M Phosphate buffer, pH 7.2 • (a) 6.85 g NaH2PO4·H2O/100 ml distilled H2O • (b) 13.40 g Na2HPO4·7H2O/100 ml distilled H2O • (c) add (a) to (b) until pH reaches 7.2 • (d) Dilute 1:10 • 2. Substrate in buffer • (a) 198 mg acetylthiocholine chloride (10 mM) • (b) q.s. to 100 ml with 0.05 M NaPO4, pH 7.2 (reagent 1) • 3. […] If active, IC50 values are determined from the inhibitory activity of subsequent concentrations. […]
# Enzyme activity is measured with the Beckman DU-50 spectrophotometer. […]
# Blank values are determined for each run to control non enzymatic hydrolysis of substrate and these values are automatically substracted by the kindata program available on kinetics soft-pac module. This program also calculates the rate of absorbance change for each cuvette. […]
# IC50 values are calculated from log-probit analysis.
substance,measurement,value
Physostigmine,IC50,6 nM
